In the supplement of paper PMC12669032:
For some assays here: Shown are results outside the selection of hits, which stands elsewhere.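 The calls were made as follows: active = AUC reduced over 20% with Padj below 0.05 in at least 2 of 3 replicates; inactive = otherwise.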 Only a part is listed here, and it is no random draw.

How the values were obtained:
Test in all cases: growth AUC relative to DMSO control (median of replicates) (fraction); higher = more growth (less inhibition), active = hit call of the paper
Details in all cases: 20 µM; 24 h
Bacteroides caccae = tested on: Bacteroides caccae
Summary of the method: (§1)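 Area under the growth curve was normalised to the plate median of solvent-only wells, except on the industrial chemical plate, where row and column medians were used. Curves came from gut bacterial monocultures grown anaerobically at 37 °C in mGAM with 20 µM compound (1% DMSO), starting at OD600 0.05 and read at OD600 every hour for 24 h. The minimum OD of each curve was set to 0, and values are medians of three biological replicates grown on separate days.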

Bacteroides clarus = tested on: Bacteroides clarus
Summary of the method: as §1

Bacteroides dorei = tested on: Bacteroides dorei
Summary of the method: as §1

Bacteroides stercoris = tested on: Bacteroides stercoris
Summary of the method: as §1

[1] = tested on: Bacteroides thetaiotaomicron
Summary of the method: as §1

Bacteroides uniformis = tested on: Bacteroides uniformis
Summary of the method: as §1

[2] = tested on: Bifidobacterium longum subsp. longum
Summary of the method: as §1

Clostridium difficile = tested on: Clostridium difficile
Summary of the method: as §1

Escherichia coli ED1a = tested on: Escherichia coli ED1a
Summary of the method: as §1

Escherichia coli IAI1 = tested on: Escherichia coli IAI1
Summary of the method: as §1

Eubacterium rectale = tested on: Eubacterium rectale
Summary of the method: as §1

[3] = tested on: Fusobacterium nucleatum subsp. animalis
Summary of the method: as §1

Lactobacillus gasseri = tested on: Lactobacillus gasseri
Summary of the method: as §1

Lactobacillus paracasei = tested on: Lactobacillus paracasei
Summary of the method: as §1

Odoribacter splanchnicus = tested on: Odoribacter splanchnicus
Summary of the method: as §1

[4] = tested on: Parabacteroides distasonis
Summary of the method: as §1

Parabacteroides merdae = tested on: Parabacteroides merdae
Summary of the method: as §1

Roseburia intestinalis = tested on: Roseburia intestinalis
Summary of the method: as §1

Streptococcus salivarius = tested on: Streptococcus salivarius
Summary of the method: as §1

Measured: growth AUC

CCOP(=S)(OCC)Oc1ncn(-c2ccccc2)n1
inactive: Bacteroides caccae 0.927 | Bacteroides clarus 1.01 | Bacteroides dorei 0.95 | Bacteroides stercoris 0.962 | [1] 0.979 | Bacteroides uniformis 0.962 | [2] 1.01 | Clostridium difficile 0.968 | Escherichia coli ED1a 0.99 | Escherichia coli IAI1 = 0.993 | Eubacterium rectale 1.09 | [3] 0.829 | Lactobacillus gasseri 0.955 | Lactobacillus paracasei 1 | Odoribacter splanchnicus 1.02 | Parabacteroides merdae 0.975 | Roseburia intestinalis 0.947 | Streptococcus salivarius 1
active: [4] 0.701

CCOc1nc(C(Cl)(Cl)Cl)ns1
inactive: Bacteroides caccae 1 | Bacteroides clarus 0.991 | Bacteroides dorei 0.985 | Bacteroides stercoris 0.906 | [1] 1.02 | Bacteroides uniformis 0.993 | [2] 1.02 | Clostridium difficile 0.994 | Escherichia coli ED1a 0.972 | Escherichia coli IAI1 = 0.967 | Eubacterium rectale 1.01 | [3] 1.01 | Lactobacillus gasseri 1 | Lactobacillus paracasei 0.885 | Odoribacter splanchnicus 1.06 | [4] 1.05 | Parabacteroides merdae 0.979 | Roseburia intestinalis 0.973 | Streptococcus salivarius 0.976
